OPERA 2.9 data: water solubility values

From the experimental data distributed with OPERA 2.9.

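OPERA's authors assembled the values from existing databases and did not measure them anew. The files give a single number for a compound and property, which may rest on several reports. Conditions of the individual experiments are not part of the data. A value may pool stereoisomers or salt forms, and the file does not say which form was measured. Some entries may be limits or estimates that an upstream database listed as plain numbers.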

Water solubility is log10 of mol/L, nominally at 25 °C; higher is more soluble. "–" marks a cell with nothing listed here.

{"smiles": "COc1ccc(C(OC[C@H]2O[C@@H](n3cnc4c(NC(=O)c5ccccc5)ncnc43)C[C@@H]2O)(c2ccccc2)c2ccc(OC)cc2)cc1", "log S (log10 mol/L)": "-6.672"}
{"smiles": "FC(F)OC(F)C(F)(F)F", "stereo": "stereo unspecified", "name": "Desflurane", "log S (log10 mol/L)": "-1.676"}
{"smiles": "COc1ccc2c(c1)C(=O)N(CCc1ccc(S(=O)(=O)NC(=O)NC3CCCCC3)cc1)C(=O)C2(C)C", "name": "Gliquidone", "log S (log10 mol/L)": "-5.38"}
{"smiles": "CN1CCC(=C2c3ccccc3CCc3cccnc32)CC1", "name": "Azatadine", "log S (log10 mol/L)": "-3.41"}
{"smiles": "O=[N+]([O-])c1ccc(CCc2ccc([N+](=O)[O-])cc2)cc1", "name": "Benzene, 1,1'-(1,2-ethanediyl)bis[4-nitro-", "log S (log10 mol/L)": "-4.59"}
{"smiles": "CC(C)C(=O)OCCc1ccccc1", "name": "2-Phenylethyl 2-methylpropanoate", "log S (log10 mol/L)": "-3.106"}
{"smiles": "CCCCCCCCCCCC(=O)OCCCCCCCCCCC(C)C", "name": "11-Methyldodecyl laurate", "log S (log10 mol/L)": "-7.076"}
{"smiles": "CCCCCC1CC(=O)C=C(C)C1C(=O)OCC", "stereo": "stereo unspecified", "log S (log10 mol/L)": "-3.187"}
{"smiles": "C=CCOC(=O)/C=C/c1ccccc1", "log S (log10 mol/L)": "-3.287"}
{"smiles": "O=c1cnc2c(=O)nc[nH]c2[nH]1", "name": "pteridine-4,7(3H,8H)-dione", "log S (log10 mol/L)": "-2.817"}
{"smiles": "CCCCCCCCCCCCc1ccc(N)cc1", "name": "4-Dodecylaniline", "log S (log10 mol/L)": "-2.64"}
{"smiles": "NC(=O)NCc1ccccc1", "name": "Benzylurea", "log S (log10 mol/L)": "-0.95"}
{"smiles": "CC(O)CN(CC(C)O)C(=O)COC(=O)c1ccccc1", "stereo": "stereo unspecified", "name": "2-[Bis(2-hydroxypropyl)amino]-2-oxoethyl benzoate", "log S (log10 mol/L)": "-1.179"}
{"smiles": "O=C(Nc1cc2c3cc(NC(=O)c4ccccc4)c4c(=O)c5ccccc5c(=O)c4c3[nH]c2c2c(=O)c3ccccc3c(=O)c12)c1ccccc1", "log S (log10 mol/L)": "-4.522"}
{"smiles": "Nc1ccc2cc(S(=O)(=O)O)ccc2c1", "name": "6-Aminonaphthalene-2-sulfonic acid", "log S (log10 mol/L)": "-3.27"}
{"smiles": "O=[N+]([O-])c1cc(/N=N/c2ccc(/N=N/c3ccc(S(=O)(=O)[O-])cc3)c(O)c2[O-])c([O-])c([N+](=O)[O-])c1.[Cu+2].[Na+]", "name": "C. I. Acid Brown 97", "log S (log10 mol/L)": "-2.208"}
{"smiles": "Cc1ccc(C(=O)OC(C)C)cc1N=Nc1c(O)c(C(=O)Nc2cc(Cl)c(NC(=O)c3cc4ccccc4c(N=Nc4cc(C(=O)OC(C)C)ccc4C)c3O)cc2Cl)cc2ccccc12", "log S (log10 mol/L)": "-7.007"}
{"smiles": "C=C1CC[C@]2(C(C)C)C[C@H]12", "name": "Sabinen", "log S (log10 mol/L)": "-4.433"}
{"smiles": "CCOC(=O)CCn1c2c(c3ccccc31)C[C@H](N[C@@H](C)c1ccccc1)CC2", "log S (log10 mol/L)": "-4.433"}
{"smiles": "COc1ccccc1NC(=O)c1cc2ccccc2cc1O", "name": "3-Hydroxy-2-naphthoic o-anisidide", "log S (log10 mol/L)": "-5.145"}
{"smiles": "CC(C)(C)c1ccc(CCC=O)cc1", "name": "3-(4-tert-Butylphenyl)propanal", "log S (log10 mol/L)": "-3.159"}
{"smiles": "Cc1ccc(C(C)NC(=O)[C@@H](NC(=O)OC(C)C)C(C)C)cc1", "stereo": "stereo partly specified", "name": "Iprovalicarb", "log S (log10 mol/L)": "-4.26"}
{"smiles": "CCOC(=O)CNC(=O)c1ccco1", "name": "Ethyl N-(furan-2-carbonyl)glycinate", "log S (log10 mol/L)": "-0.931"}
{"smiles": "O=[N+]([O-])c1ccc([O-])cc1.[Na+]", "name": "Sodium 4-nitrophenolate", "log S (log10 mol/L)": "-1.06"}
{"smiles": "CCOc1ncc(C)c2c1C(c1ccc(C#N)cc1OC)C(C(=O)OCCC#N)=C(C)N2", "stereo": "stereo unspecified", "log S (log10 mol/L)": "-6.174"}
{"smiles": "COC(OC)C(C)(C)CC=C(C)C", "name": "6,6-Dimethoxy-2,5,5-trimethylhex-2-ene", "log S (log10 mol/L)": "-3.34"}
{"smiles": "O=C(O)c1ccc(Br)o1", "name": "5-Bromo-2-furanecarboxylic acid", "log S (log10 mol/L)": "-1.939"}
{"smiles": "CCC(=O)C1C(=O)CC(C(=O)O)CC1=O", "stereo": "stereo unspecified", "name": "Prohexadione", "log S (log10 mol/L)": "-2.429"}
{"smiles": "COC1=CCC2=C(CC[C@@H]3[C@@H]2CC[C@]2(C)[C@@H](O)CC[C@@H]32)C1", "name": "1,4-Dihydroestradiol 3-methyl ether", "log S (log10 mol/L)": "-4.761"}
{"smiles": "C=CCOc1ccc(CC(=O)O)cc1Cl", "name": "Alclofenac", "log S (log10 mol/L)": "-3.129"}
{"smiles": "CCC(=O)CC(C)CC", "stereo": "stereo unspecified", "name": "5-Methyl-3-heptanone", "log S (log10 mol/L)": "-1.728"}
{"smiles": "O=C1c2ccc3c4ccc5c6c(ccc(c7ccc(c2c37)C(=O)N1CCc1ccccc1)c64)C(=O)N(CCc1ccccc1)C5=O", "log S (log10 mol/L)": "-8.238"}
{"smiles": "CNS(=O)(=O)c1cc(OC)c(N)cc1OC", "name": "Benzenesulfonamide, 4-amino-2,5-dimethoxy-N-methyl-", "log S (log10 mol/L)": "-3.651"}
{"smiles": "Nc1ccc(N=Nc2ccc(N)c3ccccc23)cc1", "name": "1-Naphthalenamine, 4-[(4-aminophenyl)azo]-", "log S (log10 mol/L)": "-6.52"}
{"smiles": "C[C@]12CC[C@H]3[C@@H](CCC4=CC(=O)CC[C@@]43C)[C@@H]1CC[C@@H]2C(=O)CO", "name": "21-Hydroxyprogesterone", "log S (log10 mol/L)": "-3.55"}
{"smiles": "CCCCCC1COCCC1OC(C)=O", "stereo": "stereo unspecified", "name": "Tetrahydro-3-pentyl-2H-pyran-4-yl acetate", "log S (log10 mol/L)": "-2.999"}
{"smiles": "CCN(CCO)c1ccc(/N=N/c2ccc([N+](=O)[O-])cc2Cl)cc1", "log S (log10 mol/L)": "-7.46"}
{"smiles": "Cc1cc(NC(=O)N(C)C)cc(C)c1Br", "name": "N'-(4-BROMO-3,5-DIMETHYLPHENYL)-N,N-DIMETHYLU*", "log S (log10 mol/L)": "-3.67"}
{"smiles": "CCCCCCOC1CCC(C)(C)O1", "stereo": "stereo unspecified", "name": "Furan, 5-(hexyloxy)tetrahydro-2,2-dimethyl-", "log S (log10 mol/L)": "-3.496"}
{"smiles": "C=CC(F)(F)C(F)(F)C(F)(F)C(F)(F)C(F)(F)C(F)(F)C(F)(F)C(F)(F)F", "name": "1H,1H,2H-Perfluoro-1-decene", "log S (log10 mol/L)": "-8.649"}

A selection of 4 entries from above:

| compound | name | log S (log10 mol/L) |
|---|---|---|
| O=c1cnc2c(=O)nc[nH]c2[nH]1 | pteridine-4,7(3H,8H)-dione | -2.817 |
| Cc1cc(NC(=O)N(C)C)cc(C)c1Br | N'-(4-BROMO-3,5-DIMETHYLPHENYL)-N,N-DIMETHYLU* | -3.67 |
| O=C1c2ccc3c4ccc5c6c(ccc(c7ccc(c2c37)C(=O)N1CCc1ccccc1)c64)C(=O)N(CCc1ccccc1)C5=O | – | -8.238 |
| COC1=CCC2=C(CC[C@@H]3[C@@H]2CC[C@]2(C)[C@@H](O)CC[C@@H]32)C1 | 1,4-Dihydroestradiol 3-methyl ether | -4.761 |